Measured values published in paper PMC10051910 (Marine Drugs, 2023).

What was measured:
Format in all cases: cell-based, Human
[1] = system: COMI glioblastoma stem cell line; experiment: GI50 growth inhibition, viable cell count (Hoechst 33342/PI), 48 h
[2] = system: G144 glioblastoma stem cell line; experiment: as above
[3] = system: G166 glioblastoma stem cell line; experiment: as above
[4] = system: GB6 glioblastoma stem cell line; experiment: as above
[5] = system: GB7 glioblastoma stem cell line; experiment: as above
[6] = system: GB8 glioblastoma stem cell line; experiment: as above
[7] = system: GSC#1 glioblastoma stem cell line; experiment: as above
[8] = system: GSC#151 glioblastoma stem cell line; experiment: as above
[9] = system: VIPI glioblastoma stem cell line; experiment: as above
[10] = system: ARPE-19 retinal pigmented epithelium cell line; experiment: GI50 growth inhibition on non-tumor cell line, 48 h; details: for Selectivity index (SI) value range: GI50 ARPE-19 / GI50 of GSC lines, range over nine GSC lines
[11] = system: Hs68 foreskin fibroblast cell line; experiment: as above; details: for Selectivity index (SI) value range: GI50 Hs68 / GI50 of GSC lines, range over nine GSC lines
[12] = system: MCF10A breast epithelium cell line; experiment: as above; details: for Selectivity index (SI) value range: GI50 MCF10A / GI50 of GSC lines, range over nine GSC lines
[13] = system: hTERT-HPNE pancreatic duct cell line; experiment: as above; details: for Selectivity index (SI) value range: GI50 hTERT-HPNE / GI50 of GSC lines, range over nine GSC lines
COMI cells [14] = experiment: GI50 on COMI cells under normoxic or hypoxic conditions; details: Normoxia (21% oxygen), 48 h, mean ± SEM, n = 6
COMI gliomaspheres = experiment: Gliomasphere 3D model cytotoxicity (Calcein AM/SYTOX Red, CellTiter-Glo 3D); details: 4 days treatment
COMI cells [15] = experiment: Western blot for apoptosis and cell cycle markers
[16] = system: panel of nine patient-derived GSC lines; experiment: GI50 growth inhibition over the GSC line panel

In the case of `CC1[As]2O[As]3O[As]1O[As](O2)C3C` (stereo not drawn), the “Ratio GI50 ATO / GI50 alkyl polyarsenical” value [1] is reported as 6.2, the “Ratio GI50 ATO / GI50 alkyl polyarsenical” value [2] is reported as 6.5 and the “Ratio GI50 ATO / GI50 alkyl polyarsenical” value [3] is reported as 2.7. The “Ratio GI50 ATO / GI50 alkyl polyarsenical” value [4] was 2.7, the “Ratio GI50 ATO / GI50 alkyl polyarsenical” value [5] was 15.0 and the “Ratio GI50 ATO / GI50 alkyl polyarsenical” value [6] was 2.7. For the same compound, the “Ratio GI50 ATO / GI50 alkyl polyarsenical” value [7] was 3.2, the “Ratio GI50 ATO / GI50 alkyl polyarsenical” value [8] was 6.5 and the “Ratio GI50 ATO / GI50 alkyl polyarsenical” value [9] was 3.7. The Selectivity Index (SI) ([10]; GI50 ARPE-19 / GI50 COMI) was 14.6, the Selectivity Index (SI) ([10]; GI50 ARPE-19 / GI50 G144) was 6.6 and the Selectivity Index (SI) ([10]; GI50 ARPE-19 / GI50 G166) was 1.5. The Selectivity Index (SI) ([10]; GI50 ARPE-19 / GI50 GB6) was 2, the Selectivity Index (SI) ([10]; GI50 ARPE-19 / GI50 GB7) was 24.3 and the Selectivity Index (SI) ([10]; GI50 ARPE-19 / GI50 GB8) was 1.6. The Selectivity Index (SI) ([10]; GI50 ARPE-19 / GI50 GSC#1) was 3.3, the Selectivity Index (SI) ([10]; GI50 ARPE-19 / GI50 GSC#151) was 3.5 and the Selectivity Index (SI) ([10]; GI50 ARPE-19 / GI50 VIPI) was 1.8. The Selectivity index (SI) value range [10] was 1.5 to 24.3, the Selectivity Index (SI) ([11]; GI50 Hs68 / GI50 COMI) was 51.9 and the Selectivity Index (SI) ([11]; GI50 Hs68 / GI50 G144) was 23.6. The Selectivity Index (SI) ([11]; GI50 Hs68 / GI50 G166) was 5.3, the Selectivity Index (SI) ([11]; GI50 Hs68 / GI50 GB6) was 7.1 and the Selectivity Index (SI) ([11]; GI50 Hs68 / GI50 GB7) was 86.4. For the same compound, the Selectivity Index (SI) ([11]; GI50 Hs68 / GI50 GB8) was 5.8, the Selectivity Index (SI) ([11]; GI50 Hs68 / GI50 GSC#1) was 11.8 and the Selectivity Index (SI) ([11]; GI50 Hs68 / GI50 GSC#151) was 12.5. It also gave a Selectivity Index (SI) ([11]; GI50 Hs68 / GI50 VIPI) of 6.5, a Selectivity index (SI) value range [11] of 5.3 to 86.4 and a Selectivity Index (SI) ([12]; GI50 MCF10A / GI50 COMI) of 16.9. The Selectivity Index (SI) ([12]; GI50 MCF10A / GI50 G144) was 7.7, the Selectivity Index (SI) ([12]; GI50 MCF10A / GI50 G166) was 1.7 and the Selectivity Index (SI) ([12]; GI50 MCF10A / GI50 GB6) was 2.3. For the same compound, the Selectivity Index (SI) ([12]; GI50 MCF10A / GI50 GB7) was 28.2, the Selectivity Index (SI) ([12]; GI50 MCF10A / GI50 GB8) was 1.9 and the Selectivity Index (SI) ([12]; GI50 MCF10A / GI50 GSC#1) was 3.8. The Selectivity Index (SI) ([12]; GI50 MCF10A / GI50 GSC#151) was 4.1, the Selectivity Index (SI) ([12]; GI50 MCF10A / GI50 VIPI) was 2.1 and the Selectivity index (SI) value range [12] was 1.7 to 28.2. The Selectivity Index (SI) ([13]; GI50 hTERT-HPNE / GI50 COMI) was 20.8, the Selectivity Index (SI) ([13]; GI50 hTERT-HPNE / GI50 G144) was 9.5 and the Selectivity Index (SI) ([13]; GI50 hTERT-HPNE / GI50 G166) was 2.1. The Selectivity Index (SI) ([13]; GI50 hTERT-HPNE / GI50 GB6) was 2.8, the Selectivity Index (SI) ([13]; GI50 hTERT-HPNE / GI50 GB7) was 34.7 and the Selectivity Index (SI) ([13]; GI50 hTERT-HPNE / GI50 GB8) was 2.3. It also gave a Selectivity Index (SI) ([13]; GI50 hTERT-HPNE / GI50 GSC#1) of 4.7, a Selectivity Index (SI) ([13]; GI50 hTERT-HPNE / GI50 GSC#151) of 5 and a Selectivity Index (SI) ([13]; GI50 hTERT-HPNE / GI50 VIPI) of 2.6. The Selectivity index (SI) value range [13] was 2.1 to 34.7, the GI50 (COMI cells [14]) was 150 nM and the “concentration that disrupts already formed gliomaspheres” value (COMI gliomaspheres) was “around 0.3 µM”. The “time at which apoptotic activity peaks” value (COMI cells [15]; 0.2 μM) was 48 h, the “time at which apoptotic activity starts” value (COMI cells [15]; 0.2 μM) was 36 h and the “concentration at which apoptosis induction peaks” value (COMI cells [15]; 48 h, 0.05, 0.1, 0.2 and 0.4 μM tested) was 0.2 µM. The “apoptosis induction (cleaved caspase 3 and cleaved PARP levels)” value (COMI cells [15]; 48 h, concentrations around and above GI50, immunoblotting) was “strong apoptotic signal”, the p53 activation (COMI cells [15]; 48 h, immunoblotting) was “very slight” and the GI50 ([16]; read-out: GI50 values range on the GSC lines tested, 48 h) was 90 to 1460 nM.

With `CCC1[As]2O[As]3O[As]1O[As](O2)C3CC` (stereo not drawn) the “Ratio GI50 ATO / GI50 alkyl polyarsenical” value [1] was 18.6, the “Ratio GI50 ATO / GI50 alkyl polyarsenical” value [2] was 23.9 and the “Ratio GI50 ATO / GI50 alkyl polyarsenical” value [3] was 12.7. For the same compound, the “Ratio GI50 ATO / GI50 alkyl polyarsenical” value [4] was 8.7, the “Ratio GI50 ATO / GI50 alkyl polyarsenical” value [5] was 27.0 and the “Ratio GI50 ATO / GI50 alkyl polyarsenical” value [6] was 11.1. For the same compound, the “Ratio GI50 ATO / GI50 alkyl polyarsenical” value [7] was 11.1, the “Ratio GI50 ATO / GI50 alkyl polyarsenical” value [8] was 33.3 and the “Ratio GI50 ATO / GI50 alkyl polyarsenical” value [9] was 19.9. For the same compound, the Selectivity Index (SI) ([10]; GI50 ARPE-19 / GI50 COMI) was 17.2, the Selectivity Index (SI) ([10]; GI50 ARPE-19 / GI50 G144) was 9.6 and the Selectivity Index (SI) ([10]; GI50 ARPE-19 / GI50 G166) was 2.8. The Selectivity Index (SI) ([10]; GI50 ARPE-19 / GI50 GB6) was 2.5, the Selectivity Index (SI) ([10]; GI50 ARPE-19 / GI50 GB7) was 17.2 and the Selectivity Index (SI) ([10]; GI50 ARPE-19 / GI50 GB8) was 2.6. It also gave a Selectivity Index (SI) ([10]; GI50 ARPE-19 / GI50 GSC#1) of 4.5, a Selectivity Index (SI) ([10]; GI50 ARPE-19 / GI50 GSC#151) of 7.2 and a Selectivity Index (SI) ([10]; GI50 ARPE-19 / GI50 VIPI) of 3.9. It also gave a Selectivity index (SI) value range [10] of 2.5 to 17.2, a Selectivity Index (SI) ([11]; GI50 Hs68 / GI50 COMI) of 124 and a Selectivity Index (SI) ([11]; GI50 Hs68 / GI50 G144) of 68.9. The Selectivity Index (SI) ([11]; GI50 Hs68 / GI50 G166) was 20, the Selectivity Index (SI) ([11]; GI50 Hs68 / GI50 GB6) was 18.2 and the Selectivity Index (SI) ([11]; GI50 Hs68 / GI50 GB7) was 124. The Selectivity Index (SI) ([11]; GI50 Hs68 / GI50 GB8) was 18.8, the Selectivity Index (SI) ([11]; GI50 Hs68 / GI50 GSC#1) was 32.6 and the Selectivity Index (SI) ([11]; GI50 Hs68 / GI50 GSC#151) was 51.7. For the same compound, the Selectivity Index (SI) ([11]; GI50 Hs68 / GI50 VIPI) was 28.2, the Selectivity index (SI) value range [11] was 18.2 to 124 and the Selectivity Index (SI) ([12]; GI50 MCF10A / GI50 COMI) was 17.8. For the same compound, the Selectivity Index (SI) ([12]; GI50 MCF10A / GI50 G144) was 9.9, the Selectivity Index (SI) ([12]; GI50 MCF10A / GI50 G166) was 2.9 and the Selectivity Index (SI) ([12]; GI50 MCF10A / GI50 GB6) was 2.6. For the same compound, the Selectivity Index (SI) ([12]; GI50 MCF10A / GI50 GB7) was 17.8, the Selectivity Index (SI) ([12]; GI50 MCF10A / GI50 GB8) was 2.7 and the Selectivity Index (SI) ([12]; GI50 MCF10A / GI50 GSC#1) was 4.7. It also gave a Selectivity Index (SI) ([12]; GI50 MCF10A / GI50 GSC#151) of 7.4, a Selectivity Index (SI) ([12]; GI50 MCF10A / GI50 VIPI) of 4 and a Selectivity index (SI) value range [12] of 2.6 to 17.8. For the same compound, the Selectivity Index (SI) ([13]; GI50 hTERT-HPNE / GI50 COMI) was 29.6, the Selectivity Index (SI) ([13]; GI50 hTERT-HPNE / GI50 G144) was 16.4 and the Selectivity Index (SI) ([13]; GI50 hTERT-HPNE / GI50 G166) was 4.8. The Selectivity Index (SI) ([13]; GI50 hTERT-HPNE / GI50 GB6) was 4.4, the Selectivity Index (SI) ([13]; GI50 hTERT-HPNE / GI50 GB7) was 29.6 and the Selectivity Index (SI) ([13]; GI50 hTERT-HPNE / GI50 GB8) was 4.5. For the same compound, the Selectivity Index (SI) ([13]; GI50 hTERT-HPNE / GI50 GSC#1) was 7.8, the Selectivity Index (SI) ([13]; GI50 hTERT-HPNE / GI50 GSC#151) was 12.3 and the Selectivity Index (SI) ([13]; GI50 hTERT-HPNE / GI50 VIPI) was 6.7. The Selectivity index (SI) value range [13] was 4.4 to 29.6, the GI50 (COMI cells [14]) was 50 nM and the “fold greater potency than ATO on the GSC line panel” value ([16]; range over nine GSC lines) was 8.7–33.3 fold.
